Assay results: PubChem BioAssay AID588413 (Sanford-Burnham Center for Chemical Genomics, 2011)
Only a part is listed here, and it is no random draw. Active and inactive are the calls of the source.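 Rule for the calls: active = inhibition above about 55% (limit read from the data); inactive = the rest.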

assay: Gli-Sufu pathway antagonists, primary screen, luciferase luminescence, Sufu-KO-LIGHT cells, uHTS (AID 588413); conditions: Sufu-KO-LIGHT fibroblasts, Gli luciferase reporter luminescence; at 5 µM; active compounds read high;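 note: 0% = DMSO-treated cells and 100% = wells with medium but no cells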

Structure (SMILES)	inhibition
c1ccc(CN2CCC(Nc3ccccc3)CC2)cc1	inactive: 1.78%
CCCN1CCC(Nc2cc(OC)cc(OC)c2)CC1	inactive: -13.4%
Cc1cc(N(CCCl)CCCl)ccc1C=O	inactive: 15.1%
CN(C)C1(CNC(=O)c2cccc(C#N)c2)CCCCC1	inactive: -13.3%
CC(C)(C)OC(=O)N1CCC(N(C(=O)c2ccccc2)c2ccc(Cl)cc2)CC1	inactive: 19.2%
N#Cc1ccc(C(=O)NCC2(N3CCCCC3)CCCCC2)cc1	inactive: 11.3%
CCc1cc(C(=O)NCC2(N3CCCCC3)CCCCC2)sc1C	inactive: 30.6%
O=C(OC1CN2CCC1CC2)C1c2ccccc2C=Cc2ccccc21 (stereo not given)	inactive: 4.47%
N/C(=N\O)c1c(N)no[n+]1[O-]	inactive: 7.68%
CCOC(=O)N1CCC(Nc2ccc(C)cc2)CC1	inactive: 5.61%
COc1ccc(C(=O)NCC2(N3CCOCC3)CCCCC2)cc1OC	inactive: 22.9%
O=C(NCC1(N2CCOCC2)CCCCC1)c1cc(Br)ccc1Cl	inactive: -24.7%
COc1cc(C(=O)NCC2(N3CCOCC3)CCCCC2)cc(OC)c1C	inactive: 6.11%
CN1CCC(Nc2ccc(Cl)cc2)CC1	inactive: 1.85%
CCC(CO)(C(=O)OC1CN2CCC1CC2)c1ccccc1 (stereo not given)	inactive: -2.98%
COc1cc(OC)cc(C(=O)NCC2(N3CCOCC3)CCCCC2)c1	inactive: 5.27%
COc1cccc(C(=O)N(c2cc(C)cc(C)c2)C2CCN(C(=O)OC(C)(C)C)CC2)c1	inactive: 18.7%
CCCOc1ccc(C(=O)NCC2(N(C)C)CCCCC2)cc1	inactive: 9.11%
CC(C)(C)OC(=O)N1CCC(Nc2ccccc2)CC1	inactive: 2.23%
O=C(O)C1(Nc2ccccc2)CCN(Cc2ccccc2)CC1	inactive: 1.26%
CCOc1ncccc1C(=O)NCC1(N2CCOCC2)CCCCC1	inactive: 17.9%
CN1CCC(Nc2ccc(F)c(Cl)c2)CC1	inactive: -7.78%
O=C(NCC1(N2CCCCC2)CCCCC1)c1ccco1	inactive: 6.01%
CN(C)c1ccc(C(=O)NCC2(N3CCCCC3)CCCCC2)cc1	inactive: 21.6%
Cn1c(=O)[nH]cc(N(CCCl)CCCl)c1=O	inactive: 19.2%
Cc1ccccc1NC1(C#N)CCN(Cc2ccccc2)CC1	inactive: 0.4%
CCN1CCC(Nc2cccc(F)c2)CC1	inactive: 6.44%
Cc1ccc(NC2(C#N)CCN(Cc3ccccc3)CC2)cc1	inactive: -2.58%
Cc1ccc(C(=O)NCC2(N3CCCCC3)CCCCC2)o1	inactive: 8.22%
Fc1ccccc1NC1CCN(Cc2ccccc2)CC1	inactive: 7.14%
